Experimental data as given in US9428504B2, “7-hydroxy-spiropipiperidine indolinyl antagonists of P2Y1 receptor” (BRISTOL-MYERS SQUIBB COMPANY, priority 2012, dated 2016).

The chains behind the UniProt entries cited, without tags or fusion partners. Where a name states a change or a piece, a line headed by the entry shows the natural chain unless it says otherwise.
UniProt P47900: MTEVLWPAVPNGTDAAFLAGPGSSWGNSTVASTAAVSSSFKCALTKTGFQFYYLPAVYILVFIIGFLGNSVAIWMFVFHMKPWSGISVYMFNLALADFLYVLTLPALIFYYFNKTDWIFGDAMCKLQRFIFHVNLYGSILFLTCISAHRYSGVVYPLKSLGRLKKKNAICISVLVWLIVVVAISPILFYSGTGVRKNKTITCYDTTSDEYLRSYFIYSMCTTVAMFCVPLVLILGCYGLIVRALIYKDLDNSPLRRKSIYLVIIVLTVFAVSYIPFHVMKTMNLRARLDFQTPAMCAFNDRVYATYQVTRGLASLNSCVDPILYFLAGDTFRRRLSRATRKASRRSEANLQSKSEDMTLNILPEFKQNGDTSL

Target: cloned human P2Y1 receptors (Homo sapiens (Human), UniProt P47900)
Test: Binding Assay B: Scintillation Proximity Assay (SPA) for P2Y1 binding
Settings: read-out: Kd for 2MeS-ADP to the P2Y1 receptor
Protocol: A SPA membrane binding assay was used to identify inhibitors of [^33P] […] Binding reactions were performed in 384-well OptiPlates (PerkinElmer Life Sciences, Cat #6007299) in a volume of 50 μL containing ˜15 fmol of P2Y1 receptor (1.7 μg of total protein), 0.3 nM [^33P] […] Reactions were allowed to proceed to completion at room temperature for 1 hour followed by centrifugation of the plate for 5 min. About 40 μL of the aqueous solution was aspirated. Plates were sealed and the [^33P]

- Kd: 14 nM
Compound: CSc1nc(N)c2ncn([C@@H]3O[C@H](COP(=O)(O)OP(=O)(O)O)[C@@H](O)[C@H]3O)c2n1 [Example 2MeS-ADP, 2 methylthio adenosine diphosphate, reference compound]
